In this test the target is 5-hydroxytryptamine receptor 5A (Homo sapiens) (UniProt P47898). Nature of the test: HTR5A agonists in cells, counter-screen for OPRM1-OPRD1 heterodimer agonist project, cell-based, luminescence (AID 504905).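 Also: 0% = vehicle-treated cells and 100% = reference agonist response.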 Particulars: HTR5A agonist counterscreen, at 9.3 µM, hits give high values.

Protein sequences, listed by entry. Tags and fused reporters are not part of them.
UniProt P47898, whole entry: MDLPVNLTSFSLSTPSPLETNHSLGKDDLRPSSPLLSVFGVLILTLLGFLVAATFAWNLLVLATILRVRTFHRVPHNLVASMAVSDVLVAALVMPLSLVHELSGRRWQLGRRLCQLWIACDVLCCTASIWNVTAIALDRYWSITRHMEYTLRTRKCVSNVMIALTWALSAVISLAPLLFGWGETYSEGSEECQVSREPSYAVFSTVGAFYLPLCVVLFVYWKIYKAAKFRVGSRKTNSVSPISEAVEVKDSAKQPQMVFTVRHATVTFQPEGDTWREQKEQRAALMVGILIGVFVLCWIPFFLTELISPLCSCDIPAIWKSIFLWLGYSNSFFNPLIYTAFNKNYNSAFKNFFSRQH

This is a selection; strong and weak results do not stand in their true shares. Some tests of the compounds listed are not included; inactive here does not mean inactive elsewhere. The source made the active and inactive calls. Rule as the data show it: active = activation above about 17%; inactive = the rest.

As to `CN(C)c1ccc(C(=O)NCC2(N(C)C)CCCCC2)cc1`, the activation is inactive: -2.9%.

Consider `CN(C)C1(CNC(=O)c2ccc(Br)cc2)CCCCC1`, for which the activation was inactive: 3.79%.

Source of the values: PubChem BioAssay AID504905 (The Scripps Research Institute Molecular Screening Center, 2011).
